Test results from ChEMBL document CHEMBL6153085, “Discovery of N-(1,2,4-Thiadiazol-5-yl)benzo[b]oxepine-4-carboxamide Derivatives as Novel Antiresistance Androgen Receptor Antagonists” (J Med Chem, 2025).

How the values were obtained:
[1] = Toxicity in BALB/c mouse assessed as body weight loss at 40 mg/kg, po administered twice daily measured up to 25 days; format: organism-based; settings: in vivo, 600 h, time < 25 day
NIH3T3 = experiment: Antiproliferative activity against mouse 3T3 cells at 50 uM incubated for 3 days by MTT assay relative to control; format: toxicity, cell-based; settings: nih3t3, 72 h, time 3 day
[2] = target: T1, Progesterone receptor (Homo sapiens) (UniProt P06401); experiment: Agonist activity at progesterone receptor (unknown origin); settings: filed as agonist
T1 sequence (whole entry): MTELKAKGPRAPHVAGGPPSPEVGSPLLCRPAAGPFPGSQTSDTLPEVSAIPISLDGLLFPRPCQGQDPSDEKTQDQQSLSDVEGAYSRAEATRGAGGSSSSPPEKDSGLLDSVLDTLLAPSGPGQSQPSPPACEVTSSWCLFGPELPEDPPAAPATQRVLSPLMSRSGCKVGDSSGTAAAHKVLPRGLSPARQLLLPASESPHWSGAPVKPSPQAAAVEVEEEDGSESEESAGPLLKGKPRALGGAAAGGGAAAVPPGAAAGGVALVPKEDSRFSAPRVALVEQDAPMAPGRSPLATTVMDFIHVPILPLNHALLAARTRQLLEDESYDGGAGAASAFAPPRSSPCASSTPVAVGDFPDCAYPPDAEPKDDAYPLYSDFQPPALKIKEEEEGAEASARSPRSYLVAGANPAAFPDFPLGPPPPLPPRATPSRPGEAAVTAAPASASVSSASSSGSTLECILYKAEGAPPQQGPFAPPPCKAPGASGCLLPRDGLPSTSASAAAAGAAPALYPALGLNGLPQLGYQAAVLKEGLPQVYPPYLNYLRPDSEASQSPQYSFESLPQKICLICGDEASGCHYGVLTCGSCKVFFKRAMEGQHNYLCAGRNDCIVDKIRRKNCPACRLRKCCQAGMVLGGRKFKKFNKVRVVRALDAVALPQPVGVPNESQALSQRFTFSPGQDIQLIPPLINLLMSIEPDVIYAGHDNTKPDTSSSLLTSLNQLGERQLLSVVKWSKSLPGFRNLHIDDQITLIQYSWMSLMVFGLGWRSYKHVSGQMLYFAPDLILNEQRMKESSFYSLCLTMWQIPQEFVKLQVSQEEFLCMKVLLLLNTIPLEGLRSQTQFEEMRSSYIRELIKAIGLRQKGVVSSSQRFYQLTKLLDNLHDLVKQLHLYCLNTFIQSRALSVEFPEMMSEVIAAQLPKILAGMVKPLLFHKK

[3] = target: T2, Mineralocorticoid receptor (Homo sapiens) (UniProt P08235); experiment: Agonist activity at Mineralocorticoid receptor (unknown origin); settings: filed as agonist
T2 sequence (whole entry): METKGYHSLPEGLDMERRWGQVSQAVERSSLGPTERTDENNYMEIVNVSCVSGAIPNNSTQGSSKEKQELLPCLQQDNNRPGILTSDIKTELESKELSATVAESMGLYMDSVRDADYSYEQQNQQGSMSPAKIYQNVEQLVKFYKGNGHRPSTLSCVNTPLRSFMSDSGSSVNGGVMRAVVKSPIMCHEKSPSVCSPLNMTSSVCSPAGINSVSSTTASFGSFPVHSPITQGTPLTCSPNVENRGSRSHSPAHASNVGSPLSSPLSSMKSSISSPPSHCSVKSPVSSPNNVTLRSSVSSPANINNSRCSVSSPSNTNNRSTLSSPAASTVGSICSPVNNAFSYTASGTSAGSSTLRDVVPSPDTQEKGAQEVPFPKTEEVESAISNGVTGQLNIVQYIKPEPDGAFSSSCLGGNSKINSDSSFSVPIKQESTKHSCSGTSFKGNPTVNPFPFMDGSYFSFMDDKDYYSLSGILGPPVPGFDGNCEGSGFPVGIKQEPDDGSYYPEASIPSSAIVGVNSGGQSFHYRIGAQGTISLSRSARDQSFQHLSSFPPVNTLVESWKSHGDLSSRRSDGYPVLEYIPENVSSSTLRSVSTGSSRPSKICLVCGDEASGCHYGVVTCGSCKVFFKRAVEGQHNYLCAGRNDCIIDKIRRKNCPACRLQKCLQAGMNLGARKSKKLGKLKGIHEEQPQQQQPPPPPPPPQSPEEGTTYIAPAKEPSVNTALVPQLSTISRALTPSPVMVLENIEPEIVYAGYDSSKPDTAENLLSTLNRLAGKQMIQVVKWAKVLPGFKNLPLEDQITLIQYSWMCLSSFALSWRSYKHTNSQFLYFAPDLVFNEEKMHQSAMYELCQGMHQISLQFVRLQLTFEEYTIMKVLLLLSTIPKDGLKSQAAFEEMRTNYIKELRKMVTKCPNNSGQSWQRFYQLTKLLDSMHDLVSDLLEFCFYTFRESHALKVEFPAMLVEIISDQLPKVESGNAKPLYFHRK

[4] = target: T1, Progesterone receptor (Homo sapiens); experiment: Antagonist activity at progesterone receptor (unknown origin)
[5] = target: T2, Mineralocorticoid receptor (Homo sapiens); experiment: Antagonist activity at Mineralocorticoid receptor (unknown origin)

Compound: O=C(Nc1nc(CN2CCOCC2)ns1)C1=Cc2cc(Cl)ccc2OC=C1
- Activity [1]: Non-toxic

Compound: CC(=O)Cc1nsc(NC(=O)C2=COc3ccc(Cl)cc3C=C2)n1
- Activity (NIH3T3): < 40%
- Activity [2]: Minimal_effect
- Activity [3]: Minimal_effect
- Activity [4]: inactive
- Activity [5]: inactive

Activity calls are given as the source filed them. No cut-off for these calls is given here.
